The nature of this data set: Stability of diazonium compounds (NMR in D2O with acetonitrile internal standard). The class given is physicochemical.

Take “tetrakis(benzene-4-diazonium)methane tetrafluoroborate [Compound 28]”: the diazonium/IS ratio worked out at 0.68 (1 hour); 0.67 (2 hours); 0.64 (6 hours); 0.54 (24 hours); 0.68 (T0 (immediately after sample preparation)).

The values above are taken from US20250170265A1 (priority 2023, published 2025).
